Laboratory results published in patent publication US8192749B2, “Methods of simultaneously treating ocular rosacea and acne rosacea” (priority 2003, dated 2012).

What was measured:
[1] = statement in words; cited from earlier work
[2] = system: BALB/c 3T3 (CCL-163) cells; experiment: 3T3 Neutral Red phototoxicity assay (PIF and MPE valuations); conditions: mean photo effect, 3T3 cells with/without UVA 5 J/cm^2; <0.1 nonphototoxin, 0.1 to <0.15 probable phototoxin, >=0.15 clear phototoxin

For tetracycline pyrazole [COL 5], the biodistribution [1] is listed as “only limited biodistribution” and the MPE [2] is listed as 0.186.
